Source: patent US9126999B2, “Tetrahydropyrazolopyrimidine compounds” (EISAI R&D MANAGEMENT CO., LTD., priority 2012, dated 2015)

The chains behind the UniProt entries cited, without tags or fusion partners. Residues count along the entry.
UniProt P58681, 27-1050 limits assumed: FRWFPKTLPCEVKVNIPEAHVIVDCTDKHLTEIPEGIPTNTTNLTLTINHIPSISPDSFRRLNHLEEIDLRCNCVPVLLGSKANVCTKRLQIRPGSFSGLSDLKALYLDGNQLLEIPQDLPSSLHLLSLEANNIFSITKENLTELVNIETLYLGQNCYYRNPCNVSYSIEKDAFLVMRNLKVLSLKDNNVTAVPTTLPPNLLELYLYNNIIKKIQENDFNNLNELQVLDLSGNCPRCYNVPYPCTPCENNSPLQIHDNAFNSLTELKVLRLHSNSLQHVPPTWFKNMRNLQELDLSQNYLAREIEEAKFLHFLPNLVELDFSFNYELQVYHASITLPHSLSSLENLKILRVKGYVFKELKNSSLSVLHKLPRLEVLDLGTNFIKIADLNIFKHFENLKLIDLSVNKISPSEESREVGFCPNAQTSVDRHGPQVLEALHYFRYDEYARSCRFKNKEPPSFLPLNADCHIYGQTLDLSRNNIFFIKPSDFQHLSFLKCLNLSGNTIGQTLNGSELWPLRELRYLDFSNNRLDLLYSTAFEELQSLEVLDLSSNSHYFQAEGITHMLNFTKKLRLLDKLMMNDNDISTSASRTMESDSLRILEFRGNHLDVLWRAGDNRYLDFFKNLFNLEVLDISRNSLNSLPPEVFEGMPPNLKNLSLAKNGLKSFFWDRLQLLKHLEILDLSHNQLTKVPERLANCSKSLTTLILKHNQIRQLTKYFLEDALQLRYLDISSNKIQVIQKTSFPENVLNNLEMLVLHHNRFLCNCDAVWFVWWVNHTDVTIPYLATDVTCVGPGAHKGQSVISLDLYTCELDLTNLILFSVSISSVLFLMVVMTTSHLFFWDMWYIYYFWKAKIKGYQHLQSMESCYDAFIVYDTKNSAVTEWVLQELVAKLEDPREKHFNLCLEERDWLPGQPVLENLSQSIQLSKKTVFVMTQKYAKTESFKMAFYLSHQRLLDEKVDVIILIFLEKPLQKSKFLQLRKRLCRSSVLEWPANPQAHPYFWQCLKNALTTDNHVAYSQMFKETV
UniProt Q9NR97, 27-1041 limits assumed: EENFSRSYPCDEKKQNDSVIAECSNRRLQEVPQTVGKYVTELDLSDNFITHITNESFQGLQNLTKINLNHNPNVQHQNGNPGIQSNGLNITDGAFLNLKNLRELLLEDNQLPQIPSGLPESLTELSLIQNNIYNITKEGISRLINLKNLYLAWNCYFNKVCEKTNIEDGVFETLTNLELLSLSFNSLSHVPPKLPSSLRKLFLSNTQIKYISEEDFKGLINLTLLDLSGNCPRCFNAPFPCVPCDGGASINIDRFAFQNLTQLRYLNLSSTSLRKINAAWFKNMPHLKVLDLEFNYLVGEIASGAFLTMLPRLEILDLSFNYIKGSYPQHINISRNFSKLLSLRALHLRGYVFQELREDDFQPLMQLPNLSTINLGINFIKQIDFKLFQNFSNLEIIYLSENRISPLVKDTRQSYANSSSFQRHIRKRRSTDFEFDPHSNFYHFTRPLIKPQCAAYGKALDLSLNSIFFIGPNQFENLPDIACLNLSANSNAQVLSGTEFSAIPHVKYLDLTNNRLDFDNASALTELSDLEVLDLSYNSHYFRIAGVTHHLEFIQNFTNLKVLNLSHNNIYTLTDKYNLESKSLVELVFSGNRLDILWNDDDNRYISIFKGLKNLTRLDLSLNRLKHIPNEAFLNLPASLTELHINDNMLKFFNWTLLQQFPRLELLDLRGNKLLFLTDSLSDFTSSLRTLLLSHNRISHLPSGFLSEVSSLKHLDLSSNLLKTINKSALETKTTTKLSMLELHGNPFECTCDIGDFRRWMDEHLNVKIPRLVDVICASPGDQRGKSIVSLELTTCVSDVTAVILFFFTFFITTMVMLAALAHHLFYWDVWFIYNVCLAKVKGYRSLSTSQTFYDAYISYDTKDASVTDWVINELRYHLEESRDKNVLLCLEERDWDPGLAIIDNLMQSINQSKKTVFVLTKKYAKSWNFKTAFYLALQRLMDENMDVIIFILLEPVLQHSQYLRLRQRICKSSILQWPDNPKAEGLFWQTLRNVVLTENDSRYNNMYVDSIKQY

What was measured:
[1] = biological target: T1, Mouse TLR7 (Mus musculus, UniProt P58681); experiment: Short-term in vivo (STIV) assay: plasma IL-6 after s.c. R848
Method: Figure Legend: Female BALB/c mice were dosed by oral gavage with Vehicle alone (0.5% aqueous methyl-cellulose) or compound ER-892887 formulated in Vehicle at 100 mg/kg or 300 mg/kg. At 13 or 24 hours following oral dosing, mice were injected subcutaneously with 15 ug R848 to stimulate TLR7. Blood plasma was collected by cardiac puncture, and the IL-6 level at 1.5 hours after TLR7 stimulation was then assessed by standard ELISA procedure. Percent suppression indicated is relative to IL-6 induction following Vehicle control dosing. Statistical significance was determined by Mann-Whitney test.
To assess compound potency in vivo against mouse TLR7, a short-term in vivo (STIV) assay was utilized. Briefly, mice were orally dosed with compounds and at various time points afterwards were injected subcutaneously with agonist R848 to stimulate TLR7. The plasma IL-6 level following R848 stimulation was then measured by ELISA to assess compound potency and duration-of-action. […] Therefore, the activity of compounds in the STIV assay can be confidently attributed to their modulation of the TLR7 pathway. A single oral dose of ER-892887 at 300 mg/kg suppresses the R848/TLR7/IL-6 pathway in vivo by 80-90% for at least 24 hours (see FIG. 1).
Six to eight week old female BALB/c mice (Jackson Labs, Bar Harbor, Me.) were dosed by oral gavage in 200 ul volume with antagonist compounds formulated in 0.5% aqueous methyl-cellulose (Sigma, St. Louis, Mo.). At various time points afterwards, mice were injected subcutaneously (s.c.) in 100 ul volume with 15 ug R848 (Resiquimod; GLSynthesis, Worcester, Mass.) to stimulate TLR7. Blood plasma was collected by cardiac puncture, and levels of IL-6 at 1.5 hours after TLR7 stimulation were then assessed by standard ELISA procedure according to the manufacturer's recommended protocol (R&D Systems).

[2] = system: Human TLR7/8; experiment: Human PBMC cell-based assay, RNA-Ig (SL4-Ig) stimulus, cytokine ELISA; conditions: read-out: Human PBMC IC50; Human PBMC IL-6 Inhibition (SL4-Ig Ligand)
[3] = biological target: T1, Mouse TLR7; experiment: Mouse spleen cell-based assay, R848 stimulus, IL-6 ELISA; conditions: read-out: Mouse Splenocyte IC50; Mouse Splenocyte IL-6 Inhibition (R848 Ligand)
Method: Spleens were harvested from female BALB/c mice (Jackson Labs, Bar Harbor, Me.) euthanized by CO2. A single cell suspension was obtained by passing spleens through a 40 μm nylon cell strainer. Cells were washed twice with 50 ml PBS (Mediatech, Inc., Manassas, Va.) and red blood cells were lysed in 5 ml RBC Lysis buffer (eBioscience, Inc., San Diego, Calif.) for 5 minutes at room temperature. Cells were washed twice more in PBS and finally resuspended in supplemented RPMI-1640 at 2.5×10^6 cells/ml. Cells were plated at 100 μl/well (2.5×10^5 cells/well) in 96-well tissue culture treated plates (Falcon). Serial dilutions of compounds solubilized in 100% DMSO were added in triplicate to cells to yield a final concentration of 0.1% DMSO. Cells were incubated with compound for 30 minutes at 37° C., 5% CO2 before adding 100 μl/well of 740 nM R848 (Resiquimod; GLSynthesis, Worcester, Mass.) in complete media for a final concentration of 370 nM R848. Cells were incubated for 20 hours at 37° C., 5% CO2. Culture supernatants were collected, and levels of IL-6 were assessed by standard ELISA procedure according to the manufacturer's recommended protocol (BD Biosciences, Inc., San Diego, Calif.).

[4] = biological target: Human TLR8 (Homo sapiens, UniProt Q9NR97); experiment: HEK-293 NF-kappaB luciferase reporter assay, CL097 stimulus; format: cell-based; conditions: read-out: HEK/TLR8 IC50; human TLR8 in the HEK-293 assay format
Description: In vitro pharmacology: HEK-293 cells (ATCC) were engineered to stably express a NF-kappaB transcription factor inducible E-selectin (ELAM-1) luciferase reporter derived from the plasmid pGL3 (Promega) containing base pairs −2241 bp to −254 bp from the promoter of the human E-selectin gene (Accession No. NM_000450). These cells were then subsequently engineered to stably and individually express human TLR4, TLR7 or TLR9 full-length ORF cDNAs. Human TLR4 cDNA (Accession No. NM_138554) was cloned into pcDNA 3.0 expression vector (Invitrogen). TLR4 transfected cells were also engineered to express human MD-2 co-receptor [MD-2 cDNA (Accession No. NM_015364) was cloned into the pEF-BOS vector] and were supplemented with 10 nM soluble CD14 (R&D Systems) in the media to optimize LPS responsiveness. Human TLR9 cDNA (Accession No. NM_017442) was cloned into the pBluescript II KS vector (Agilent). Human TLR7 cDNA (Accession No. NM_016562) was obtained from OriGene. HEK-293 cells stably expressing human TLR8 (Accession No. NM_138636) or mouse TLR7 (Accession No. NM_133211) were purchased from InvivoGen and were then stably transfected with pNiFty2(NF-kappaB)-luciferase reporter plasmid (InvivoGen). Each cell type was plated in Dulbecco's modified Eagle's medium (DMEM) containing 10% fetal bovine serum (FBS) at a density of 2.22×10^5 cells/ml into a 384-well plate and incubated for 2 days at 37° C., 5% CO2. Varying concentrations of antagonist compounds were then added. Cells were then incubated for another 30 minutes before adding the appropriate TLR agonist as follows (final concentrations indicated): lipopolysaccharide (LPS; Sigma) at 10 ng/ml for TLR4, CL097 (InvivoGen) at 3 ug/ml for human TLR7 and TLR8 and mouse TLR7, and CpG-2006-2A [sequence: […] (SEQ ID NO: 1) with phosphorothioate backbone, synthesized by Sigma-Aldrich] at 0.6 uM for TLR9.

CNC(=O)c1ccc(-c2cc3n(n2)[C@@H](C(F)(F)F)C[C@@H](c2ccc(OC)c(OC)c2)N3)cc1Cl
% Suppression vs. Vehicle ([1]; time point 3 hr, dose 100 mg/kg oral): 98% | % Suppression vs. Vehicle ([1]; time point 6 hr, dose 33 mg/kg oral): 48% | % Suppression vs. Vehicle ([1]; time point 6 hr, dose 100 mg/kg oral): 99% | % Suppression vs. Vehicle ([1]; time point 19 hr, dose 33 mg/kg oral): 53% | % Suppression vs. Vehicle ([1]; time point 19 hr, dose 100 mg/kg oral): 45% | IC50 [2]: 350 nM | IC50 [3]: 630 nM | IC50 [4]: 150 nM
